# Reference: patent US10577368B2 (The United States of America, as represented by the …, priority 2013, dated 2020)
# Protein sequences, listed by entry. Tags and fused reporters are not part of them.
# UniProt P0DMS8, whole entry: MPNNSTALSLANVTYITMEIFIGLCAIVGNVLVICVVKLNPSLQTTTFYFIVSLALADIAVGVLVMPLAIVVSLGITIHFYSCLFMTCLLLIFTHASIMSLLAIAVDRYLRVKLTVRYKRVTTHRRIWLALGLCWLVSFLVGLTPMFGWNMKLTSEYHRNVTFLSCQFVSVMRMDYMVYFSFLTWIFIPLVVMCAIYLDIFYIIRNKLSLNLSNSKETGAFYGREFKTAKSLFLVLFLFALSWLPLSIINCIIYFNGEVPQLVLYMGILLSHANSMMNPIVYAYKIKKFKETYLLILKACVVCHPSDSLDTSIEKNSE
# UniProt Q60612, whole entry: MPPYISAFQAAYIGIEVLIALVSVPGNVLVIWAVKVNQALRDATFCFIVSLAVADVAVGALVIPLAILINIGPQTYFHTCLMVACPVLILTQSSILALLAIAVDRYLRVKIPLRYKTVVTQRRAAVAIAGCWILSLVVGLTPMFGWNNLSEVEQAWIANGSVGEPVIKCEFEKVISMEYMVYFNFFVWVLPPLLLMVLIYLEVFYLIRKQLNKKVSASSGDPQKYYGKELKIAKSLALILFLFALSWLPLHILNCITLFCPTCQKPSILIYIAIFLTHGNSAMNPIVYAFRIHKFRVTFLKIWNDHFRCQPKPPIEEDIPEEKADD
# How the values were obtained:
# [1] = system: CYP1A2, CYP2C9, CYP2C19, CYP2D6, CYP3A4; test: Inhibition of 5 CYP isozymes; type: in vitro ADME; conditions: human
# From the text: In vitro stability parameters for selected compounds are set forth in Table 6, in accordance with an embodiment of the invention.
# hA3AR = hA3AR (Homo sapiens (Human), UniProt P0DMS8); test: Radioligand binding at hA3AR, CHO cell membranes, [125I]I-AB-MECA
# mA1AR = mA1AR (Mus musculus (Mouse), UniProt Q60612); test: Competition binding at mA1AR, HEK293 cell membranes; conditions: read-out: A1AR % inhibition, mouse data (m)
# [2] = % Unbound in plasma, mouse; type: in vitro ADME
# [3] = % Unbound in plasma, human; type: in vitro ADME
# Aqueous solubility = type: physicochemical; conditions: aqueous medium, pH 7.4, aqueous buffer; read-out: Aq. Solubility (pH 7.4, μg/mL)
# % Unbound in plasma, rat = type: in vitro ADME
compound,measurement,setting,value
"CNC(=O)[C@@]12C[C@@H]1[C@@H](n1cnc3c(NC)nc(C#Cc4ccco4)nc31)[C@H](O)[C@@H]2O [Compound 17, (1S,2R,3S,4R,5S)-4-(2-(Furan-2-ylethynyl)-6-(methylamino)-9H-purin-9-yl)-2,3-dihydroxy-N-methylbicyclo[3.1.0]hexane-1-carboxamide]",IC50,[1],> 10000 nM
"CNC(=O)[C@@]12C[C@@H]1[C@@H](n1cnc3c(NC)nc(C#Cc4cc[nH]n4)nc31)[C@H](O)[C@@H]2O [Compound 9, (1S,2R,3S,4R,5S)-4-(2-((1H-Pyrazol-3-yl)ethynyl)-6-(methylamino)-9H-purin-9-yl)-2,3-dihydroxy-N-methylbicyclo[3.1.0]hexane-1-carboxamide]",Ki,hA3AR,2.23 ± 0.18 nM
"CNC(=O)[C@@]12C[C@@H]1[C@@H](n1cnc3c(NC)nc(C#Cc4cnccn4)nc31)[C@H](O)[C@@H]2O [Compound 7, (1S,2R,3S,4R,5S)-2,3-Dihydroxy-N-methyl-4-(6-(methylamino)-2-(pyrazin-2-ylethynyl)-9H-purin-9-yl)bicyclo[3.1.0]hexane-1-carboxamide]",inhibition at 10 µM,mA1AR,57%
same,% Unbound in plasma: Mouse,[2],59.1%
same,% Unbound in plasma: Human,[3],61.2%
same,solubility,Aqueous solubility,> 208 µg/mL
same,% Unbound in plasma: Rat,"% Unbound in plasma, rat",57.5%
